According to patent publication US9867833B2, “Serine/threonine kinase inhibitors” (GENENTECH, INC., priority 2013, dated 2018):
Several values for one entry are separate records, joined by “and”; a condition that tells them apart may be missing. Equal values may be shown once.

Chains of the proteins cited; added tags and fusions are not shown. Residues count along the entry.
UniProt P28482, 8-360: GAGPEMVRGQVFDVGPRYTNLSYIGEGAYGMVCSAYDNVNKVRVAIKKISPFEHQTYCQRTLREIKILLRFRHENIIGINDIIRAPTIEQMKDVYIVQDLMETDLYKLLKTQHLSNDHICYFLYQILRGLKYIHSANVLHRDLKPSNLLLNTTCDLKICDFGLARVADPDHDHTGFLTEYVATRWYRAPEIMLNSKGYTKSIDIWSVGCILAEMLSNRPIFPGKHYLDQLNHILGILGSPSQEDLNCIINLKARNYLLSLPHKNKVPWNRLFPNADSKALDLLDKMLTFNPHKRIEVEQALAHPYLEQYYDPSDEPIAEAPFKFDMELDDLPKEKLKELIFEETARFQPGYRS

The compounds below were run against human ERK-2 (Mitogen Activated Kinase 1) (Homo sapiens (Human), UniProt P28482) (assay: ERK-2 Enzymatic Assay). Settings: human ERK-2 enzyme 5 nM, 25 μM ATP, S/T17 peptide substrate; isomer = configuration of CR2R3.
Format: biochemical
Description: Compounds were tested in an enzymatic assay using human ERK-2 (Mitogen Activated Kinase 1), recombinantly expressed as an n-terminal 6-His fusion protein in E. coli and corresponding to aa 8-360. […] Test compounds were diluted in DMSO in 3-fold serial dilutions at 100× final concentrations. […] The data collected from each well was fit to a straight line, and the resulting rates were used to calculate percent of control. Percent of control was plotted against compound concentration, and IC50 values were determined using a four-parameter fit.

Compared with `CC(C)C1CC(=O)N(C)c2cc(-c3ccnc(Nc4ccnn4C)n3)cc3nnc1n23` (single isomer, unassigned) [(R) I-69, 9-isopropyl-6-methyl-4-(2-((1-methyl-1H-pyrazol-5-yl)amino)pyrimidin-4-yl)-8,9-dihydro-1,2,2a^1,6-tetraazabenzo[cd]azulen-7(6H)-one], `CC(C)C[C@@H]1CC(=O)N(C)c2cc(-c3ccnc(Nc4ccnn4C)n3)cc3nnc1n23` [(R) I-68, 9-isobutyl-6-methyl-4-(2-((1-methyl-1H-pyrazol-5-yl)amino)pyrimidin-4-yl)-8,9-dihydro-1,2,2a^1,6-tetraazabenzo[cd]azulen-7(6H)-one] is 3.9-fold lower in IC50: 0.512 nM for the first, 0.132 nM for the second. The second is the more potent here.

First: CN1C[C@H](Cc2ccc(Cl)cc2)c2nnc3cc(-c4ccnc(Nc5ccnn5C)c4)cc1n23 (single isomer, unassigned) [(S) I-13, 4-(3-(4-chlorobenzyl)-5-methyl-4,5-dihydro-3H-1,2,2a^1,5-tetraazaacenaphthylen-7-yl)-N-(1-methyl-1H-pyrazol-5-yl)pyridin-2-amine]
Second: CN1C(=O)C[C@@H](Cc2ccc(F)cc2)c2nnc3cc(-c4ccnc(Nc5ccnn5C)c4)cc1n23 [(R) I-70, 9-(4-fluorobenzyl)-6-methyl-4-(2-((1-methyl-1H-pyrazol-5-yl)amino)pyridin-4-yl)-8,9-dihydro-1,2,2a^1,6-tetraazabenzo[cd]azulen-7(6H)-one]
The IC50 of the first is lower: < 0.02 nM for the first, 0.316 nM for the second. The first is the more potent here.

First: CC(C)C1CC(=O)N(C)c2cc(-c3ccnc(Nc4ccnn4C)n3)cc3nnc1n23 (single isomer, unassigned) [(S) I-69, 9-isopropyl-6-methyl-4-(2-((1-methyl-1H-pyrazol-5-yl)amino)pyrimidin-4-yl)-8,9-dihydro-1,2,2a^1,6-tetraazabenzo[cd]azulen-7(6H)-one]
Second: CC(C)C[C@H]1CC(=O)N(C)c2cc(-c3ccnc(Nc4ccnn4C)n3)cc3nnc1n23 [(S) I-68, 9-isobutyl-6-methyl-4-(2-((1-methyl-1H-pyrazol-5-yl)amino)pyrimidin-4-yl)-8,9-dihydro-1,2,2a^1,6-tetraazabenzo[cd]azulen-7(6H)-one]
The IC50 of the first is 7.1-fold higher: 369 nM for the first, 52 nM for the second. The second is the more potent here.

`C[C@H]1Oc2cc(-c3ccnc(Nc4ccnn4C)n3)cc3nnc(n23)[C@H]1Cc1ccccc1` [(3R 4R) I-76, 4-(3-benzyl-4-methyl-3,4-dihydro-5-oxa-1,2,2a^1-triazaacenaphthylen-7-yl)-N-(1-methyl-1H-pyrazol-5-yl)pyrimidin-2-amine] and `C[C@@H]1Oc2cc(-c3ccnc(Nc4ccnn4C)n3)cc3nnc(n23)[C@H]1Cc1ccccc1` [(3R 4S) I-72, 4-(3-benzyl-4-methyl-3,4-dihydro-5-oxa-1,2,2a^1-triazaacenaphthylen-7-yl)-N-(1-methyl-1H-pyrazol-5-yl)pyrimidin-2-amine] cannot be ordered by IC50: < 0.02 nM for the first, < 0.02 nM for the second.

`Cn1nccc1Nc1nccc(-c2cc3n4c(nnc4c2)[C@@H](Cc2ccccc2)CS3)n1` [(R) I-16, 4-(3-benzyl-3,4-dihydro-5-thia-1,2,2a^1-triazaacenaphthylen-7-yl)-N-(1-methyl-1H-pyrazol-5-yl)pyrimidin-2-amine] and `CCN1C[C@H](Cc2ccccc2)c2nnc3cc(-c4ccnc(Nc5ccnn5C)n4)cc1n23` [(S) I-17, 4-(3-benzyl-5-ethyl-4,5-dihydro-3H-1,2,2a^1,5-tetraazaacenaphthylen-7-yl)-N-(1-methyl-1H-pyrazol-5-yl)pyrimidin-2-amine] cannot be ordered by IC50: < 0.02 nM for the first, < 0.02 nM for the second.

Compared with `COc1cccc(C[C@@H]2CNc3cc(-c4ccnc(Nc5ccnn5C)n4)cc4nnc2n34)n1` [(R) I-27, 4-(3-((6-methoxypyridin-2-yl)methyl)-4,5-dihydro-3H-1,2,2a^1,5-tetraazaacenaphthylen-7-yl)-N-(1-methyl-1H-pyrazol-5-yl)pyrimidin-2-amine], `COc1ccc(C[C@@H]2CCOc3cc(-c4ccnc(Nc5ccnn5C)n4)cc4nnc2n34)cc1F` [(R) I-59, 4-(9-(3-fluoro-4-methoxybenzyl)-8,9-dihydro-7H-6-oxa-1,2,2a^1-triazabenzo[cd]azulen-4-yl)-N-(1-methyl-1H-pyrazol-5-yl)pyrimidin-2-amine] is lower in IC50: 2.3 nM for the first, < 0.02 nM for the second.

`Cn1nccc1Nc1nccc(-c2cc3n4c(nnc4c2)[C@@H](Cc2ccc(Cl)cc2)CO3)n1` [(R) I-41, 4-(3-(4-chlorobenzyl)-3,4-dihydro-5-oxa-1,2,2a^1-triazaacenaphthylen-7-yl)-N-(1-methyl-1H-pyrazol-5-yl)pyrimidin-2-amine] and `Cn1nccc1Nc1nccc(-c2cc3n4c(nnc4c2)[C@@H](Cc2ccc(F)c(F)c2)CO3)n1` [(R) I-53, 4-(3-(3,4-difluorobenzyl)-3,4-dihydro-5-oxa-1,2,2a^1-triazaacenaphthylen-7-yl)-N-(1-methyl-1H-pyrazol-5-yl)pyrimidin-2-amine] cannot be ordered by IC50: < 0.02 nM for the first, < 0.02 nM for the second.

`COc1ccc(C[C@H]2COc3cc(-c4ccnc(Nc5ccnn5C)c4)cc4nnc2n34)cc1F` [(R) I-49, 4-(3-(3-fluoro-4-methoxybenzyl)-3,4-dihydro-5-oxa-1,2,2a^1-triazaacenaphthylen-7-yl)-N-(1-methyl-1H-pyrazol-5-yl)pyridin-2-amine] and `Cn1nccc1Nc1cc(-c2cc3n4c(nnc4c2)[C@@H](Cc2ccc(F)cc2)CO3)ccn1` [(R) I-57, 4-(3-(4-fluorobenzyl)-3,4-dihydro-5-oxa-1,2,2a^1-triazaacenaphthylen-7-yl)-N-(1-methyl-1H-pyrazol-5-yl)pyridin-2-amine] cannot be ordered by IC50: < 0.02 nM for the first, < 0.02 nM for the second.

Compared with `CN1C(=O)C[C@@H](Cc2ccccc2)c2nnc3cc(-c4ccnc(Nc5ccnn5C)c4)cc1n23` [(R) I-61, 9-benzyl-6-methyl-4-(2-((1-methyl-1H-pyrazol-5-yl)amino)pyridin-4-yl)-8,9-dihydro-1,2,2a^1,6-tetraazabenzo[cd]azulen-7(6H)-one], `CN1C(=O)C[C@H](Cc2ccccc2)c2nnc3cc(-c4ccnc(Nc5ccnn5C)c4)cc1n23` [(S) I-61, 9-benzyl-6-methyl-4-(2-((1-methyl-1H-pyrazol-5-yl)amino)pyridin-4-yl)-8,9-dihydro-1,2,2a^1,6-tetraazabenzo[cd]azulen-7(6H)-one] is 80-fold higher in IC50: 0.073 nM for the first, 5.83 nM for the second.

First: COc1ccc(C[C@@H]2CC(=O)N(C)c3cc(-c4ccnc(Nc5ccnn5C)c4)cc4nnc2n34)cc1 [(R) I-63, 9-(4-methoxybenzyl)-6-methyl-4-(2-((1-methyl-1H-pyrazol-5-yl)amino)pyridin-4-yl)-8,9-dihydro-1,2,2a^1,6-tetraazabenzo[cd]azulen-7(6H)-one]
Second: CN1C(=O)C[C@H](Cc2ccc(F)cc2)c2nnc3cc(-c4ccnc(Nc5ccnn5C)c4)cc1n23 [(S) I-70, 9-(4-fluorobenzyl)-6-methyl-4-(2-((1-methyl-1H-pyrazol-5-yl)amino)pyridin-4-yl)-8,9-dihydro-1,2,2a^1,6-tetraazabenzo[cd]azulen-7(6H)-one]
The IC50 of the first is lower: < 0.02 nM for the first, 17.2 nM for the second. The first is the more potent here.

Going from `CN1C(=O)C[C@H](CC(F)(F)F)c2nnc3cc(-c4ccnc(Nc5ccnn5C)c4)cc1n23` [(R) I-86, 6-methyl-4-(2-((1-methyl-1H-pyrazol-5-yl)amino)pyridin-4-yl)-9-(2,2,2-trifluoroethyl)-8,9-dihydro-1,2,2a^1,6-tetraazabenzo[cd]azulen-7(6H)-one] to `CN1C(=O)C[C@@H](CC(F)(F)F)c2nnc3cc(-c4ccnc(Nc5ccnn5C)c4)cc1n23` [(S) I-86, 6-methyl-4-(2-((1-methyl-1H-pyrazol-5-yl)amino)pyridin-4-yl)-9-(2,2,2-trifluoroethyl)-8,9-dihydro-1,2,2a^1,6-tetraazabenzo[cd]azulen-7(6H)-one], the IC50 rises from 9 nM to 212 nM (24-fold).

First: Cn1nccc1C[C@@H]1CCOc2cc(-c3ccnc(Nc4ccnn4C)n3)cc3nnc1n23 [(R) I-92, N-(1-methyl-1H-pyrazol-5-yl)-4-(9-((1-methyl-1H-pyrazol-5-yl)methyl)-8,9-dihydro-7H-6-oxa-1,2,2a^1-triazabenzo[cd]azulen-4-yl)pyrimidin-2-amine]
Second: Cn1nccc1C[C@H]1CCOc2cc(-c3ccnc(Nc4ccnn4C)n3)cc3nnc1n23 [(S) I-92, N-(1-methyl-1H-pyrazol-5-yl)-4-(9-((1-methyl-1H-pyrazol-5-yl)methyl)-8,9-dihydro-7H-6-oxa-1,2,2a^1-triazabenzo[cd]azulen-4-yl)pyrimidin-2-amine]
The IC50 of the first is 28-fold higher: 2.42 nM for the first, 0.085 nM for the second.

In the case of `CN1C(=O)N[C@H](Cc2ccc(F)cc2)c2nnc3cc(-c4ccnc(Nc5ccnn5C)n4)cc1n23` [Compound I-35, (R)-9-(4-fluorobenzyl)-6-methyl-4-(2-((1-methyl-1H-pyrazol-5-yl)amino)pyrimidin-4-yl)-8,9-dihydro-1,2,2a^1,6,8-pentaazabenzo[cd]azulen-7(6H)-one], the IC50 is reported as 0.173 nM.

For `CCC(C#N)C1CCOc2cc(-c3ccnc(Nc4ccnn4C)n3)cc3nnc1n23` [(S) I-105, (S)-2-[4-(2-((1-methyl-1H-pyrazol-5-yl)amino)pyrimidin-4-yl)]-8,9-dihydro-7H-6-oxa-1,2,2a^1-triazabenzo[cd]azulen-9-yl)butanenitrile], the IC50 was < 0.02 nM and 0.082 nM.
